Measured values reported in patent publication US9050343B2 (ACADIA Pharmaceuticals Inc., priority 2007, dated 2015).
Like-named read-outs stand apart in the source and are kept apart here.

How the values were obtained:
[1] = for Final mean weight: end of study
[2] = tested on: in vivo mouse model of cognition; conditions: antipsychotic alone; FIG. 18
[3] = tested on: radial arm maze in vivo mouse model of cognition; conditions: risperidone alone; FIG. 19
[4] = in vivo, po
[5] = initial parameter for simulation, 5 mg once daily oral
clinical = conditions: in vivo, po, 4 mg
catalepsy in rats = experiment: Catalepsy assessment

`Cc1nc2n(c(=O)c1CCN1CCC(c3noc4cc(F)ccc34)CC1)CCCC2` [Risperidone, risperidone] gave a Mean weight gain ([1]; 2 mg risperidone per day) of 1.1540 kg, a Final mean weight ([1]; 2 mg risperidone per day) of 81.856 kg and a Mean weight gain ([1]; 6 mg risperidone per day) of 2.1162 kg. The Final mean weight ([1]; 6 mg risperidone per day) was 81.332 kg, the “percent novel object recognition” value [2] was “novel object recognition impairment” and the “working memory errors after repeated trials” value [3] was “cognitive deficit”. The “serum prolactin levels, dose response” value (serum prolactin levels; compared to vehicle controls, pimavanserin up to 3 mg/kg, FIG. 20A) was “dose-dependent increase in serum prolactin levels”, the magnitude of prolactinemia (serum prolactin levels; fixed dose haloperidol (0.1 mg/kg) or risperidone (0.01 mg/kg) in the presence of pimavanserin, FIG. 20B) was “significantly attenuated” and the serum prolactin levels (serum prolactin levels; risperidone 0.01 mg/kg ip, vehicle 24±3) was 102 ± 12 ng/mL. The CLD2/F [4] was 9885.5 mL/h, the V2/F [4] was 157245.7 mL and the CL/F ([4]; 4 mg) was 14408.8 L/h. For the same molecule, the CL/F [5] was 14409 mL/h, the CLD2/F [5] was 9886 mL/h and the V2/F [5] was 157246 mL. For the same molecule, the AUC (clinical) was 278 ng·h/mL, the Cmax (clinical) was 25.8 ng/mL and the Tmax (clinical) was 2.4 h. The “CD50 (dose that elicits 50% of maximum catalepsy)” value (catalepsy in rats; agent alone, ip) was 1.1 mg/kg, the CD50 (catalepsy in rats; in the presence of 1 mg/kg pimavanserin sc) was 2.0 mg/kg and the CD50 (catalepsy in rats; in the presence of 3 mg/kg pimavanserin sc) was 4.4 mg/kg. The CD50 (catalepsy in rats; in the presence of 10 mg/kg pimavanserin sc) was 5.1 mg/kg.

For `Cc1cc2c(s1)Nc1ccccc1N=C2N1CCN(C)CC1` [olanzapine], the “percent novel object recognition” value [2] was “novel object recognition impairment”.
